Only some compounds are listed: those with a hit (about 0.46% of all), similar ones and a draw of the others.
PINK1 expr mod: changes PINK1 expression | PINK1 immunofluorescence, high-content cytometry, 24 h | Potency, µM (series often up to 76.6 µM), without a hit: at the highest dose activation (PINK1 increase), most hits filed as activators | actives 0.2% (n = 410,000) | AID 624263; active = well fitted activation curve with a large enough effect; inconclusive = small, poorly fitted or top-dose-only effect; cell line not stated here; note: potency is the fitted concentration of half-maximal effect; % of control where 0% means no effect; nearly all actives have a fitted effect of over 65% in size
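Readout is PINK1 immunofluorescence, quantified alongside mitochondrial, cell and nuclear markers by laser-scanning microplate cytometry. Cells from a stable line were exposed to compound titrations (5 concentrations) for 24 hours, with CCCP controls.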
miR-21 FLuc: miR-21 reporter, rising signal; HeLa miR-21 FLuc reporter, luciferase, 48 h; Potency, µM (highest dose often 38.3 µM), for the others: top-dose reporter change, positive = more light; 340,000 tested, under 10 active; AID 2288; active = well fitted rising curve with a large enough effect; inconclusive = small, poorly fitted or top-dose-only effect; inactive = no such curve, though single readings can be large or run the other way;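 further: % of control where 0% means no effect; miR-21 action dims this reporter so a rising signal means less miR-21 action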
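Compounds were titrated across several concentrations (up to approximately 40 uM) and incubated 48 hours with HeLa miR-21-FLuc reporter cells (miR-21 target sequence downstream of FLuc, endogenous miR-21). Readout was firefly luciferase luminescence after lytic detection reagent.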
Pin1 inhibitor: inhibitors of human Pin1; AID 504891; actives 0.009% (n = 390,000); Q13526; Potency, µM (highest dose often 115 µM), inactives show at the highest dose activity, negative = inhibition, hits mostly inhibitors; Pin1 FP peptide displacement, HiFluor488, 10 min; active = well fitted inhibition curve with a large enough effect in the polarisation, with a control signal flat, not every such curve was filed as active; inconclusive = small, poorly fitted or top-dose-only effect, or effect the other way, or a change in a side signal; inactive = no such curve, though single readings can be large or run the other way; the % refers to the polarisation; note: potency is the fitted concentration of half-maximal effect; % is set by controls: 0 for no effect and ±100 for the full control effect
B2AR arrestin: agonists driving beta-arrestin recruitment to human beta2-adrenergic receptor; beta-arrestin recruitment to beta2AR, cell-based reporter; P07550; actives 0.02% (n = 330,000); Potency, µM (highest dose often 46.1 µM), without a hit: at the top dose activation, usual class: activators;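 note: potency is the fitted concentration of half-maximal effect; 0% = DMSO controls and full agonism = EC100 isoproterenol or metaproterenol; nearly all actives have a fitted effect of over 65% in size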
PKM2 activator: activators of human pyruvate kinase M2 | actives 0.34% (n = 260,000) | Potency, µM (doses to about 57.5 µM), inactives show at the highest dose activation, usual class: activators | purified PKM2, Kinase-Glo ATP luminescence, activation; response scale: 0% is enzyme alone, no compound; note: potency is the fitted concentration of half-maximal effect; % is set by controls: 0 for no effect and ±100 for the full control effect; nearly all actives have a fitted effect of over 55% in size
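hPK-M2, >95% pure; 0.1 mM ADP / 0.5 mM PEP final; imidazole pH7.2 buffer w/ 7 mM MgCl2, 50 mM KCl; 1 h RT; Kinase-Glo lum. Intermediate enzyme activity for dual inhibitor/activator qHTS.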
Chronic BCR inh: blocks chronic active B-cell receptor signaling; ABC-DLBCL IkBa-CBG/CBR reporter, luminescence ratio, 4 h; Potency, µM (titrated, usually from 46.1 µM), without a hit: at the top dose activity change, negative = inhibition, hits mostly inhibitors; actives 0.05% (n = 340,000); active = well fitted inhibition curve with a large enough effect in the signal ratio, with a control signal flat, not every such curve was filed as active; inconclusive = small, poorly fitted or top-dose-only effect, or effect the other way, or a change in a side signal; the % refers to the signal ratio;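 note: potency is the fitted concentration of half-maximal effect; plate controls were basal doxycycline-induced cells for no effect and cells given 10 µM MG132 for full effect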
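TMD8 human ABC-DLBCL cells with doxycycline-inducible IκBα–green luciferase fusion and unfused red luciferase, in 0.5% FBS medium; compounds up to 46 uM, 4 h at 37C. Green/red luminescence ratio, filter-overlap corrected, fitted to concentration-response curves.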
Numbers without * were called inactive; ? = inconclusive; · = not tested or not shown. Unless noted, calls come from the whole dose curve; as a rule, active = well fitted curve in the direction sought with a large enough effect; inconclusive = small, poorly fitted or top-dose-only effect, or another doubt; inactive = no such curve, though single readings can be large; an effect the other way counts as inactive or inconclusive.

1) Cc1ccc2[nH]c3c(c2c1)CN(C(=O)CC1(c2ccccc2)CC(=O)N(Cc2cccnc2)C1=O)CC3 (configuration not stated)
2) CC(=O)c1c(C)[nH]c(C(=O)Nc2cccc(S(=O)(=O)N(C)C)c2)c1C
3) CC(=O)c1c(C)[nH]c(C(=O)Nc2ccc(S(=O)(=O)N(C)C)cc2)c1C
4) CC(=O)c1c(C)[nH]c(C(=O)Nc2ccc(C)c(S(=O)(=O)Nc3ccc(C)cc3C)c2)c1C
5) COc1ccccc1NS(=O)(=O)c1cc(NC(=O)c2[nH]c(C)c(C(C)=O)c2C)ccc1N1CCOCC1
6) Cc1cc2c(c(-c3ccc4nc(C)ccc4c3)c1)OC(CNC(=O)Cc1ccn(C)c1)C2 (configuration not stated)
7) CN(C)C(=O)[C@@H]1C[C@@H](Sc2nc3ccccc3[nH]2)CN1Cc1ccnc2ccccc12
8) Cc1cc(C)c(S(=O)(=O)/N=C2/C=C(Sc3ncn[nH]3)C(=O)c3ccccc32)cc1C

assay / entry,1,2,3,4,5,6,7,8
PINK1 expr mod,3%,14%,0%,22%,5%,1%,-1%,1%
miR-21 FLuc,·,-47%,0%,24%,9%,·,·,?
Pin1 inhibitor,·,-10%,4%,19%,4%,·,·,38µM*
B2AR arrestin,·,0%,0%,0%,0%,·,·,-2%
PKM2 activator,·,?,7.1µM*,18µM*,16µM*,·,·,-18%
Chronic BCR inh,·,0%,?,-20%,?,·,·,?

9) CCOC(=O)/C(C#N)=C/c1ccc(OC)c(OC)c1
10) CCOc1cc(/C=C(\C#N)C(N)=O)ccc1OS(=O)(=O)c1ccccc1
11) COc1ccccc1NC(=O)Cc1noc(CSc2cccc[n+]2[O-])n1
12) CCCNS(=O)(=O)c1cccn1-c1ncc(C(F)(F)F)cc1Cl
13) O=S(=O)(NCc1cccnc1)c1cccn1-c1ncc(C(F)(F)F)cc1Cl
14) Cc1ccc(C2=N/C(=C/N3CCOCC3)C(=O)O2)cc1
15) Cc1cccc2cc(/C=C3\N=C(c4ccccc4)OC3=O)c(N3CCOCC3)nc12
16) N#C/C(=C/c1ccc(N2CCOCC2)o1)c1ccc(Cl)cc1

assay / entry,9,10,11,12,13,14,15,16
PINK1 expr mod,-1%,2%,2%,1%,1%,-1%,4%,13µM*
miR-21 FLuc,0%,-9%,-2%,-3%,7%,-71%,0%,22%
Pin1 inhibitor,-5%,-2%,1%,1%,-10%,-9%,76µM*,?
B2AR arrestin,0%,0%,0%,0%,0%,0%,0%,11%
PKM2 activator,?,14µM*,3%,?,22µM*,2%,1%,1.3µM*
Chronic BCR inh,0%,-2%,23µM*,-13%,-1%,7%,-1%,?

17) N#C/C(=C\c1ccc(N2CCOCC2)o1)c1nc2ccccc2[nH]1
18) N#C/C(=C\c1ccc(N2CCCCC2)o1)C(N)=O
19) COc1ccc(CN2CSC(=S)N(Cc3ccc(OC)cc3)C2)cc1
20) COc1ccc(CN2CSC(=S)N(Cc3ccccc3)C2)cc1
21) CCCN(CCC)c1nc(-c2ccccn2)nc2ccccc12
22) c1ccc(CCNc2nc(-c3ccccn3)nc3ccccc23)cc1
23) COc1ccc(C(=O)/C=C/C(=O)N(CC(=O)NC2CCCCC2)Cc2cccs2)c(O)c1
24) COCCN(CC(=O)NC1CCCCC1)C(=O)/C=C/C(=O)c1ccc(OC)cc1O
25) COc1cccc(C#Cc2c(C=O)n(C)c3ccccc23)c1
26) CSc1ccccc1C(=O)NCc1nc(-c2cccc(NC(=O)c3ccoc3C)c2)oc1C

assay / entry,17,18,19,20,21,22,23,24,25,26
PINK1 expr mod,14µM*,?,2%,0%,?,40µM*,-1%,-2%,40µM*,1%
miR-21 FLuc,-26%,-23%,4%,7%,?,?,27%,0%,·,·
Pin1 inhibitor,?,?,2%,2%,-9%,5%,23%,1%,0%,·
B2AR arrestin,0%,0%,4%,?,0%,0%,0%,-1%,0%,·
PKM2 activator,-7%,16%,-4%,·,·,-4%,13µM*,-19%,·,·
Chronic BCR inh,?,0%,16µM*,?,?,0%,?,-15%,?,·

An excerpt from above, reduced to Chronic BCR inh.
| no. | Compound | Chronic BCR inh |
| --- | --- | --- |
| 2 | CC(=O)c1c(C)[nH]c(C(=O)Nc2cccc(S(=O)(=O)N(C)C)c2)c1C | 0% |
| 3 | CC(=O)c1c(C)[nH]c(C(=O)Nc2ccc(S(=O)(=O)N(C)C)cc2)c1C | ? |
| 4 | CC(=O)c1c(C)[nH]c(C(=O)Nc2ccc(C)c(S(=O)(=O)Nc3ccc(C)cc3C)c2)c1C | -20% |
